Data on 1 molecule can be found in paper PMC8720280 (Cell reports, 2021).

This test deals with T1, surface DR5 on human tumor cells (Homo sapiens, UniProt O14763).
T1 construct: Death receptor-5 (DR5), endogenous on tumor cells; also called native DR5; cell surface DR5; source: endogenous, on cultured human tumor cells (MDA-MB-436, MDA-MB-231, OVCAR-3)
The test is described as follows: co-IP; native immunoprecipitation: cells treated with IgG1 DR5 agonist antibody (10, 50 or 500nM), lysed, anti-human IgG1-Fc beads 2 hr at 4°C, DR5 immunoblot. Conditions: one partner purified. Background: Immunoblotting shows a protein as a band on a membrane.

B1: AMG655 (antibody, V domains shown)
VH: QVQLQESGPGLVKPSQTLSLTCTVSGGSISSGDYFWSWIRQLPGKGLEWIGHIHNSGTTYYNPSLKSRVTISVDTSKKQFSLRLSSVTAADTAVYYCARDRGGDYYYGMDVWGQGTTVTVSS
VL: EIVLTQSPGTLSLSPGERATLSCRASQGISRSYLAWYQQKPGQAPSLLIYGASSRATGIPDRFSGSGSGTDFTLTISRLEPEDFAVYYCQQFGSSPWTFGQGTKVEIK
notes: IgG1; also called conatumumab; source: FreeStyle CHO-S, transfected, purified (protein A)
B1: the binding result was “binds”.
